{"source": "patent US20060009433A1", "about": "“Neuroprotective spirostenol pharmaceutical compositions” (priority 2003, published 2006)", "test_system": "rat PC12 neuronal cells", "details": "MTT; 100 μM steroid", "data": [{"smiles": "C[C@]12CC[C@H](O)CC1=CC[C@@H]1[C@@H]2CC[C@]2(C)C(=O)CC[C@@H]12", "note": "[DHEA, 5-androsten-3β-ol-17-one]", "values": [{"measurement": "protection against 5 μM Aβ-induced cytotoxicity", "result": "protected"}, {"measurement": "protection against 50 μM Aβ-induced cytotoxicity", "result": "but not 50 μM"}]}]}
